Here are results for one substance from article PMC4769596 (Biochemical pharmacology, 2014).

The target of assay [1] is μOR homomers (μ^βgalOR cells) (Homo sapiens, UniProt P35372). The assay is classed as cell-based.
The target in assay [2] is μOR-δOR heteromers (μ^βgalOR-δOR cells) (Homo sapiens, UniProt P35372+P41143).

Consider deltorphin II, for which the “β-arrestin recruitment to μOR” value in assay [1] is reported as “but not to μ^βgalOR cells”; in assay [2], “induces β-arrestin recruitment”.
